Measured values: ChEMBL document CHEMBL4725236, “Synthesis and pharmacological evaluation of bivalent tethered ligands to target the mGlu heterodimeric receptor results in a compound with mGlu homodimer selectivity” (Bioorg Med Chem Lett, 2020)

Test system: HEK293
Test: Positive allosteric modulation of rat mGlu2/mGlu4 receptor expressed in HEK293 cells coexpressing GIRK assessed as thallium influx by CODA-RET assay relative to glutamate
Type: cell-based
Conditions: filed as positive allosteric modulator
How it was run: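 HEK293 cells co-expressing mGlu2, mGlu4 and GIRK channels; thallium flux read-out. Test compound concentration-response in the presence of a fixed EC20 glutamate concentration. Gives EC50, Hill slope and maximal response as % of a saturating glutamate concentration. N=3 experiments, each in triplicate.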

COc1cc(NC(=O)c2ccccn2)ccc1NC(=O)c1ccc(NC(=O)COCC(=O)NCCCNC(=O)COc2ccc(-c3cccc(COc4cc5c(c(C)c4C)C(=O)C(C4CCCC4)C5)c3)cc2C(=O)O)cc1Cl (stereo unspecified)
Emax: 90%
